Laboratory results as given in patent US20230414557A1, “NEW THERAPY CONCEPT FOR THE TREATMENT OF CORONA INFECTIONS, ESPECIALLY COVID-19 INFECTIONS” (priority 2020, published 2023).

Test system: NFkB and MAPK pathways
Assay: S1 spike protein stimulated monocytes, Western blot of NFkB and MAPK pathways
Details: pretreated with 1 mM 1,8-cineole for 1 h, 5 μg/mL S1 spike protein

CC12CCC(CC1)C(C)(C)O2 [1,8-cineole, 1,3,3-trimethyl-2-oxabicyclo[2.2.2]octane]
S1-activation of monocytes: significantly inhibits | phosphorylations of IkBa, NFkB, Akt and Erk1/2 (Western blot): can be inhibited
